Source: ChEMBL document CHEMBL5233260, “Diverse chemical space of indoleamine-2,3-dioxygenase 1 (Ido1) inhibitors” (Eur J Med Chem, 2021)

By UniProt entry, the sequences of proteins in these tests, tags left out.
UniProt P14902, whole entry, looked up: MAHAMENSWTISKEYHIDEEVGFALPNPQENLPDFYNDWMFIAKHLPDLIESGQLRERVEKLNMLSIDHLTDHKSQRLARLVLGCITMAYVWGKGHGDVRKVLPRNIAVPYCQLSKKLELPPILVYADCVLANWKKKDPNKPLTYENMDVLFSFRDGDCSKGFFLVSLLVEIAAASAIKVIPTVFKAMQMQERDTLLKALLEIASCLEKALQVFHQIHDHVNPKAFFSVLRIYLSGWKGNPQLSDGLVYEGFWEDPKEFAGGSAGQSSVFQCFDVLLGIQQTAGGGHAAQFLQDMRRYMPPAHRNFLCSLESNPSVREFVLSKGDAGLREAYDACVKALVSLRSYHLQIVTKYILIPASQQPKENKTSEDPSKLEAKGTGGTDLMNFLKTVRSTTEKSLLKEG

Molecular target: Indoleamine 2,3-dioxygenase 1 (Homo sapiens, UniProt P14902)
Settings: hela

For `COP(C)(=O)NCCCNc1nonc1/C(=N/O)Nc1ccc(F)c(Br)c1` (stereo unspecified), which IC50 is on record?
The IC50 was 2.6 nM.
